Assay results from patent US12084523 (TECHNION RESEARCH AND DEVELOPMENT FOUNDATION, dated 2024).

B1: J01_mClBz (peptide)
peptide: WYDREYYYLGYGCG
modifications: N-terminal mClBz thioether anchor (M*), cyclized through the chlorobenzyl group
notes: M* is the anchor and is not counted as a residue; also called J01 (M* = mClBz)

Biological target: T1, biotin-^K48Ub2 (chemically synthesized K48-linked di-ubiquitin, biotin on the distal Ub) (UniProt P0CG48 1-76, isopeptide bond from the C-terminus of the distal Ub to Lys48 of the proximal Ub; biotin at the N-terminus of the distal Ub)
T1 construct: mature; also called Lys48-linked ubiquitin dimer
Assay: SPR, K48-Ub2

Point of comparison: GWFDDLYWFVAYCG (N-terminal mClBz thioether anchor (M*), cyclized, also called J08_L8W) [J08_mClBz_L8W], Kd 1.2 nM. Against it:
- B1 — 120-fold higher, 141 nM
- WYDREYYYLGYGCG (N-terminal pClBz thioether anchor (M*), cyclized through the chlorobenzyl group, also called J01 (M* = pClBz)) [J01_pClBz] — 120-fold higher, 141 nM
- GWFDNLYWYITHCG (N-terminal mClBz thioether anchor (M*), cyclized through the chlorobenzyl group, also called J02 (M* = mClBz)) [J02_mClBz] — 13-fold higher, 16 nM
- GWFDNLYWYITHCG (N-terminal pClBz thioether anchor (M*), cyclized through the chlorobenzyl group, also called J02 (M* = pClBz)) [J02_pClBz] — 40-fold higher, 48 nM
- GWFDDLYLFYAYCG (N-terminal mClBz thioether anchor (M*), cyclized) [J08_mClBz_V10Y] — 4.7-fold higher, 5.6 nM

Biological target: T1, biotin-^K48Ub2 (chemically synthesized …)
Assay: SPR, K48-Ub2
Remark: another data set of the same source

Point of comparison: GWFDDLYLYVAYCG (N-terminal mClBz thioether anchor, cyclized) [J08_mClBz_F9Y], Kd 0.58 nM. Against it:
- GWFDDLYWFVAYCG (N-terminal mClBz thioether anchor (M*), cyclized, also called J08_L8W) [J08_mClBz_L8W] — 2.1-fold higher, 1.2 nM
- GWFDDLYLFYAYCG (N-terminal mClBz thioether anchor (M*), cyclized) [J08_mClBz_V10Y] — 9.7-fold higher, 5.6 nM
- GWFDDEYWFYAYCG (N-terminal mClBz thioether anchor (M*), cyclized) [J08_mClBz_L6E_L8W_V10Y] — 13-fold higher, 7.6 nM

Biological target: T1, biotin-^K48Ub2 (chemically synthesized …)
Assay: SPR, K48-Ub2; pClBz anchor, not mClBz; wildtype J08

GWFDDLYLFVAYCG (N-terminal pClBz thioether anchor (M*), cyclized through the chlorobenzyl group, also called J08 (M* = pClBz)) [J08_pClBz] gave a Kd of 234 nM.
